The text below walks through data of patent publication US9512114B2, “Substituted aminopyrimidine compounds and methods of use” (Calitor Sciences, LLC, priority 2013, dated 2016).

Chains of the proteins cited; added tags and fusions are not shown. Lines headed by an entry give the natural chain unless they say otherwise; changes in a name come on top.
UniProt O00329: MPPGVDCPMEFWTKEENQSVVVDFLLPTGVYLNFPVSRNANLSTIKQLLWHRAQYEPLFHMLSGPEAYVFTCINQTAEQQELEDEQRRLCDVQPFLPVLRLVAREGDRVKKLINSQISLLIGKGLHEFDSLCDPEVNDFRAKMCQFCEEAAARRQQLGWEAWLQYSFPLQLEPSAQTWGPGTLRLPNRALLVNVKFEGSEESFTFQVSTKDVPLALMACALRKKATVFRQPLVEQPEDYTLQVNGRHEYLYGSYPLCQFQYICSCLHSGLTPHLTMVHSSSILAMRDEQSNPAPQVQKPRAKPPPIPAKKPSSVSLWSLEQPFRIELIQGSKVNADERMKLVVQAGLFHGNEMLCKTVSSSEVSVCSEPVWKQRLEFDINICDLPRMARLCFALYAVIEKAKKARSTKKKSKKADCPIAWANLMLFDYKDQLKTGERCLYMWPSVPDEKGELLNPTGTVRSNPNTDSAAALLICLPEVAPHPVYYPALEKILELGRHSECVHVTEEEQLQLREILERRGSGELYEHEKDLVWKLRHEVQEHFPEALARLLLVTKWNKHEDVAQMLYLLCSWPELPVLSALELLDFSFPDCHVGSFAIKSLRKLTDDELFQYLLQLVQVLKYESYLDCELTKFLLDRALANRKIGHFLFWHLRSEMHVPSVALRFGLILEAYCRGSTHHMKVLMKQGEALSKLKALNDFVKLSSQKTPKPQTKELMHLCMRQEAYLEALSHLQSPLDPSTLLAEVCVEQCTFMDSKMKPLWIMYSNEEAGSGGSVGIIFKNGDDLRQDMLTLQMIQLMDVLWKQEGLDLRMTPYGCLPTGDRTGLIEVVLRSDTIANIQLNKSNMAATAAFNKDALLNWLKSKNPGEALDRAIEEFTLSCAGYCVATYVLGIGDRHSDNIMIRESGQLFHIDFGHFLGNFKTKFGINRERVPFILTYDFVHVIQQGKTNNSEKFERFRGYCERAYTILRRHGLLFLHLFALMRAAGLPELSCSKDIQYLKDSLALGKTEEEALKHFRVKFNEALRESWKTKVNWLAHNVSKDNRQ
UniProt P42338: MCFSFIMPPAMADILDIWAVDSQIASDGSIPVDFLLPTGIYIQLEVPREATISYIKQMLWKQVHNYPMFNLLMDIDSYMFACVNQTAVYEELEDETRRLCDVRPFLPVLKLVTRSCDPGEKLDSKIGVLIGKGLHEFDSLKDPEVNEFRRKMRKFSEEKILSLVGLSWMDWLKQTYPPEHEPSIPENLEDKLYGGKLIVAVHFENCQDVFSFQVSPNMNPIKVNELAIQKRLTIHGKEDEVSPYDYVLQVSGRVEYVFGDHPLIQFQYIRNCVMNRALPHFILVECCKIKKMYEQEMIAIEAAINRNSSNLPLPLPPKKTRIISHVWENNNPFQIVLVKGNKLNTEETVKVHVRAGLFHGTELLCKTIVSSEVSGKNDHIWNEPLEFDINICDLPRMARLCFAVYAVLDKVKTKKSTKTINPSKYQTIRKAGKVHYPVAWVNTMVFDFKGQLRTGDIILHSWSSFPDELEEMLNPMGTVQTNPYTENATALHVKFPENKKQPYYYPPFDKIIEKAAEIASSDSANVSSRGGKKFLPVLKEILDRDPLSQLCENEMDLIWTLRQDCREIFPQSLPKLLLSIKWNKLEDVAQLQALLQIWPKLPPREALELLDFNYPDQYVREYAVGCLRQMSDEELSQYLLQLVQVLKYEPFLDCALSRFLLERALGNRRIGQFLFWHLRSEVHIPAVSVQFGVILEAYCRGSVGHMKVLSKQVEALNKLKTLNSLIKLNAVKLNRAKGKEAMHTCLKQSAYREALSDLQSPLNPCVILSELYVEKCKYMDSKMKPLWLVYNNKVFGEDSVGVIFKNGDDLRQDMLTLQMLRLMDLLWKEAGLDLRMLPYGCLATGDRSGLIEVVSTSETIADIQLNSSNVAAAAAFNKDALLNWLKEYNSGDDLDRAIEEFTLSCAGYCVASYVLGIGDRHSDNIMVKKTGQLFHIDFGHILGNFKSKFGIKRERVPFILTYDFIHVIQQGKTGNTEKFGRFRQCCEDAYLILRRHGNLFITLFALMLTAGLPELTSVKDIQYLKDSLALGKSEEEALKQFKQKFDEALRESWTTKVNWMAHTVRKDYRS

One test has as its target PI3K (p110δ/p85α) (h) (Homo sapiens (Human), UniProt O00329). Briefly: PI3K (p110δ/p85α) (h) non-radioactive HTRF kinase assay. The class given is biochemical. As to conditions: performed at Millipore UK Ltd. Here is the method:
(§1) The above assay procedure can be used to determine the IC50 for inhibition and/or the inhibition constant, Ki. […] The IC50 value is estimated by preparing a 10 point curve using a ½ log dilution series (for example, a typical curve may be prepared using the following compound concentrations: 10 μM, 3 μM, 1 μM, 0.3 μM, 0.1 μM, 0.03 μM, 0.01 μM, 0.003 μM, 0.001 μM and 0 μM).
PI3K (p110δ/p85α) (h) [Non-Radioactive Assay]
(§2) PI3K (p110δ/p85α) (h) is incubated in assay buffer containing 10 μM phosphatidylinositol-4, 5-bisphosphate and MgATP (concentration as required). The reaction is initiated by the addition of the MgATP mix. After incubation for 30 minutes at room temperature, the reaction is stopped by the addition of stop solution containing EDTA and biotinylated phosphatidylinositol-3,4,5-trisphosphate. Finally, detection buffer is added, which contains europium-labelled anti-GST monoclonal antibody, GST-tagged GRP1 PH domain and streptavidin-allophycocyanin. The plate is then read in timeresolved fluorescence mode and the homogenous time-resolved fluorescence (HTRF) signal is determined according to the formula HTRF=10000×(Em665 nm/Em620 nm).
(§3) The kinase assays described herein were performed at Millipore UK Ltd, Dundee Technology Park, Dundee DD2 1SW, UK.

In the next test the target is PI3K (p110β/p85α) (h) (Homo sapiens (Human), UniProt P42338). Briefly: PI3K (p110β/p85α) (h) non-radioactive HTRF kinase assay. The class given is biochemical. As to conditions: performed at Millipore UK Ltd. As to the method:
as §1
PI3K (p110β/p85α) (h) [Non-Radioactive Assay]
as §2, with “([…])” for “(p110δ/p85α)”
as §3

As for `CC[C@H](Nc1ncnc(N)c1-c1nc(C)no1)c1cc2cccc(Cl)c2c(=O)n1-c1ccccc1` [Ex. 3, (S)-3-(1-((6-amino-5-(3-methyl-1,2,4-oxadiazol-5-yl)pyrimidin-4-yl)amino)propyl)-8-chloro-2-phenylisoquinolin-1(2H)-one], the 50% inhibitory concentration (IC50) at PI3K (p110δ/p85α) (h) came to 2 nM.
In the case of `Cc1noc(-c2c(N)ncnc2N[C@@H](C)c2cc3cccc(Cl)c3c(=O)n2-c2ccccc2)n1` [Ex. 8, (S)-3-(1-((6-amino-5-(3-methyl-1,2,4-oxadiazol-5-yl)pyrimidin-4-yl)amino)ethyl)-8-chloro-2-phenylisoquinolin-1(2H)-one], the IC50 on PI3K (p110β/p85α) (h) is 33 nM.
The same measure, in the same setting: the same measure for `Cc1noc(-c2c(N)ncnc2N[C@@H](C)c2cc3cccc(Cl)c3c(=O)n2C2CC2)n1` [Ex. 24, (S)-3-(1-((6-amino-5-(3-methyl-1,2,4-oxadiazol-5-yl)pyrimidin-4-yl)amino)ethyl)-8-chloro-2-cyclopropylisoquinolin-1(2H)-one]: 38 nM.
As to `CC[C@H](Nc1ncnc(N)c1-c1ccon1)c1cc2cccc(F)c2c(=O)n1-c1ccccc1` [Ex. 19, (S)-3-(1-((6-amino-5-(isoxazol-3-yl)pyrimidin-4-yl)amino)propyl)-8-fluoro-2-phenylisoquinolin-1(2H)-one], the IC50 on PI3K (p110δ/p85α) (h) worked out at 46 nM.
`Cc1nc(-c2c(N)ncnc2N[C@@H](C)c2cc3cccc(Cl)c3c(=O)n2C2CC2)no1` [Ex. 11, (S)-3-(1-((6-amino-5-(5-methyl-1,2,4-oxadiazol-3-yl)pyrimidin-4-yl)amino)ethyl)-8-chloro-2-cyclopropylisoquinolin-1(2H)-one]: at PI3K (p110β/p85α) (h), the IC50 turned out to be 102 nM.
Regarding `Cc1noc(-c2c(N)ncnc2N[C@@H](C)c2cc3cccc(Cl)c3c(=O)n2-c2cccc(F)c2)n1` [Ex. 23, (S)-3-(1-((6-amino-5-(3-methyl-1,2,4-oxadiazol-5-yl)pyrimidin-4-yl)amino)ethyl)-8-chloro-2-(3-fluorophenyl)isoquinolin-1(2H)-one], the IC50 on PI3K (p110δ/p85α) (h) came to 3 nM.
As to `CC[C@H](Nc1ncnc(N)c1-c1nnc(C)o1)c1cc2cccc(Cl)c2c(=O)n1-c1ccccc1` [Ex. 5, (S)-3-(1-((6-amino-5-(5-methyl-1,3,4-oxadiazol-2-yl)pyrimidin-4-yl)amino)propyl)-8-chloro-2-phenylisoquinolin-1(2H)-one], the IC50 on PI3K (p110δ/p85α) (h) is 6 nM.
The same measure, in the same setting: then `CC[C@H](Nc1ncnc(N)c1-c1nnc(C)o1)c1cc2cccc(C)c2c(=O)n1C1CC1` [Ex. 6, (S)-3-(1-((6-amino-5-(5-methyl-1,3,4-oxadiazol-2-yl)pyrimidin-4-yl)amino)propyl)-2-cyclopropyl-8-methylisoquinolin-1(2H)-one], with 18 nM.
As for `Cc1nnc(-c2c(N)ncnc2N[C@@H](C)c2cc3cccc(Cl)c3c(=O)n2-c2ccccc2)o1` [Ex. 9, (S)-3-(1-((6-amino-5-(5-methyl-1,3,4-oxadiazol-2-yl)pyrimidin-4-yl)amino)ethyl)-8-chloro-2-phenylisoquinolin-1(2H)-one], the IC50 at PI3K (p110β/p85α) (h) worked out at 226 nM.
For the compound `CC[C@H](Nc1ncnc(N)c1-c1noc(C)n1)c1cc2cccc(Cl)c2c(=O)n1C1CC1` [Ex. 21, (S)-3-(1-((6-amino-5-(5-methyl-1,2,4-oxadiazol-3-yl)pyrimidin-4-yl)amino)propyl)-8-chloro-2-cyclopropylisoquinolin-1(2H)-one], the IC50 on PI3K (p110δ/p85α) (h) is 15 nM.
